Abundance fitness data for 47 variants are collected here from the Human Domainome abundance scans (Beltran et al. 2025).

± gives the uncertainty stated by the source.

The labels stand for the following.
B1: Tyrosine-protein kinase ABL1, residues 64 to 120; numbered along this chain, P00519 (parent)
chain: NLFVALYDFVASGDNTLSITKGEKLRVLGYNHNGEWCEAQTKNGQGWVPSNYITPVN

Variants of B1 are the subject of this series. The series can be described thus: abundance fitness (aPCA) (normalised: wild type 0, dead -1); higher = more abundant; growth selection in yeast, the domain comes from the species named. The following applies: Homo sapiens.
With NLFVALYDFVASGDNTLSITKGEKLRVLGYNHNGEWCEAQWKNGQGWVPSNYITPVN, the abundance fitness was -0.271 ± 0.11.

Turning to NLFVALYDFVASGDNTLSITKGEKLRVLGYNHNGEWCEAQVKNGQGWVPSNYITPVN, the abundance fitness is -0.199 ± 0.13.

With NLFVALYDFVASGDNTLSITKGEKLRVLGYNHNGEWCEAQTCNGQGWVPSNYITPVN, the abundance fitness was -0.072 ± 0.083.

Regarding NLFVALYDFVASGDNTLSITKGEKLRVLGYNHNGEWCEAQTMNGQGWVPSNYITPVN, the abundance fitness was -0.166 ± 0.12.

NLFVALYDFVASGDNTLSITKGEKLRVLGYNHNGEWCEAQTVNGQGWVPSNYITPVN: the abundance fitness was -0.025 ± 0.086.

NLFVALYDFVASGDNTLSITKGEKLRVLGYNHNGEWCEAQTFNGQGWVPSNYITPVN: the abundance fitness was -0.26 ± 0.18.

NLFVALYDFVASGDNTLSITKGEKLRVLGYNHNGEWCEAQTENGQGWVPSNYITPVN: the abundance fitness worked out at 0.153 ± 0.089.

As to NLFVALYDFVASGDNTLSITKGEKLRVLGYNHNGEWCEAQTANGQGWVPSNYITPVN, the abundance fitness was -0.016 ± 0.081.

Consider NLFVALYDFVASGDNTLSITKGEKLRVLGYNHNGEWCEAQTRNGQGWVPSNYITPVN, for which the abundance fitness is 0.048 ± 0.079.

As for NLFVALYDFVASGDNTLSITKGEKLRVLGYNHNGEWCEAQTWNGQGWVPSNYITPVN, the abundance fitness was -0.216 ± 0.06.

For NLFVALYDFVASGDNTLSITKGEKLRVLGYNHNGEWCEAQTNNGQGWVPSNYITPVN, the abundance fitness was -0.256 ± 0.21.

Turning to NLFVALYDFVASGDNTLSITKGEKLRVLGYNHNGEWCEAQTGNGQGWVPSNYITPVN, the abundance fitness came out at 0.107 ± 0.065.

For the variant NLFVALYDFVASGDNTLSITKGEKLRVLGYNHNGEWCEAQTLNGQGWVPSNYITPVN, the abundance fitness was -0.126 ± 0.091.

With NLFVALYDFVASGDNTLSITKGEKLRVLGYNHNGEWCEAQTTNGQGWVPSNYITPVN, the abundance fitness was -0.09 ± 0.085.

On to NLFVALYDFVASGDNTLSITKGEKLRVLGYNHNGEWCEAQTSNGQGWVPSNYITPVN, for which the abundance fitness was -0.11 ± 0.1.

As to NLFVALYDFVASGDNTLSITKGEKLRVLGYNHNGEWCEAQTPNGQGWVPSNYITPVN, the abundance fitness is -0.183 ± 0.12.

Turning to NLFVALYDFVASGDNTLSITKGEKLRVLGYNHNGEWCEAQTQNGQGWVPSNYITPVN, the abundance fitness was -0.001 ± 0.11.

Take NLFVALYDFVASGDNTLSITKGEKLRVLGYNHNGEWCEAQTYNGQGWVPSNYITPVN: the abundance fitness turned out to be 0.055 ± 0.14.

NLFVALYDFVASGDNTLSITKGEKLRVLGYNHNGEWCEAQTDNGQGWVPSNYITPVN: the abundance fitness stood at 0.243 ± 0.18.

On to NLFVALYDFVASGDNTLSITKGEKLRVLGYNHNGEWCEAQTKNGNGWVPSNYITPVN, for which the abundance fitness was -0.362 ± 0.18.

On to NLFVALYDFVASGDNTLSITKGEKLRVLGYNHNGEWCEAQTKNGSGWVPSNYITPVN, for which the abundance fitness came to 0.063 ± 0.061.

Turning to NLFVALYDFVASGDNTLSITKGEKLRVLGYNHNGEWCEAQTKNGAGWVPSNYITPVN, the abundance fitness was found to be 0.202 ± 0.11.

Consider NLFVALYDFVASGDNTLSITKGEKLRVLGYNHNGEWCEAQTKNGCGWVPSNYITPVN, for which the abundance fitness was -0.07 ± 0.087.

For the variant NLFVALYDFVASGDNTLSITKGEKLRVLGYNHNGEWCEAQTKNGHGWVPSNYITPVN, the abundance fitness turned out to be 0.043 ± 0.088.

As to NLFVALYDFVASGDNTLSITKGEKLRVLGYNHNGEWCEAQTKNGPGWVPSNYITPVN, the abundance fitness was -0.397 ± 0.097.

Take NLFVALYDFVASGDNTLSITKGEKLRVLGYNHNGEWCEAQTKNGRGWVPSNYITPVN: the abundance fitness is -0.167 ± 0.098.

As for NLFVALYDFVASGDNTLSITKGEKLRVLGYNHNGEWCEAQTKNGEGWVPSNYITPVN, the abundance fitness is -0.213 ± 0.18.

As for NLFVALYDFVASGDNTLSITKGEKLRVLGYNHNGEWCEAQTKNGLGWVPSNYITPVN, the abundance fitness was -0.013 ± 0.066.

NLFVALYDFVASGDNTLSITKGEKLRVLGYNHNGEWCEAQTKNGGGWVPSNYITPVN: the abundance fitness was -0.286 ± 0.083.

In the case of NLFVALYDFVASGDNTLSITKGEKLRVLGYNHNGEWCEAQTKNGKGWVPSNYITPVN, the abundance fitness is 0.195 ± 0.15.

Take NLFVALYDFVASGDNTLSITKGEKLRVLGYNHNGEWCEAQTKNGIGWVPSNYITPVN: the abundance fitness was -0.445 ± 0.3.

With NLFVALYDFVASGDNTLSITKGEKLRVLGYNHNGEWCEAQTKNGDGWVPSNYITPVN, the abundance fitness is -0.196 ± 0.17.

On to NLFVALYDFVASGDNTLSITKGEKLRVLGYNHNGEWCEAQTKNGFGWVPSNYITPVN, for which the abundance fitness is -0.015 ± 0.11.

NLFVALYDFVASGDNTLSITKGEKLRVLGYNHNGEWCEAQTKNTQGWVPSNYITPVN: the abundance fitness is -0.531 ± 0.12.

Take NLFVALYDFVASGDNTLSITKGEKLRVLGYNHNGEWCEAQTKNYQGWVPSNYITPVN: the abundance fitness is -0.264 ± 0.46.

Consider NLFVALYDFVASGDNTLSITKGEKLRVLGYNHNGEWCEAQTKNMQGWVPSNYITPVN, for which the abundance fitness is -0.265 ± 0.14.

Turning to NLFVALYDFVASGDNTLSITKGEKLRVLGYNHNGEWCEAQTKNKQGWVPSNYITPVN, the abundance fitness was -0.056 ± 0.11.

Take NLFVALYDFVASGDNTLSITKGEKLRVLGYNHNGEWCEAQTKNSQGWVPSNYITPVN: the abundance fitness was -0.065 ± 0.069.

Turning to NLFVALYDFVASGDNTLSITKGEKLRVLGYNHNGEWCEAQTKNDQGWVPSNYITPVN, the abundance fitness is -0.285 ± 0.13.

Regarding NLFVALYDFVASGDNTLSITKGEKLRVLGYNHNGEWCEAQTKNEQGWVPSNYITPVN, the abundance fitness was -0.195 ± 0.072.

For the variant NLFVALYDFVASGDNTLSITKGEKLRVLGYNHNGEWCEAQTKNWQGWVPSNYITPVN, the abundance fitness was -0.032 ± 0.095.

Turning to NLFVALYDFVASGDNTLSITKGEKLRVLGYNHNGEWCEAQTKNRQGWVPSNYITPVN, the abundance fitness was -0.191 ± 0.081.

As for NLFVALYDFVASGDNTLSITKGEKLRVLGYNHNGEWCEAQTKNVQGWVPSNYITPVN, the abundance fitness is -0.423 ± 0.082.

Regarding NLFVALYDFVASGDNTLSITKGEKLRVLGYNHNGEWCEAQTKNPQGWVPSNYITPVN, the abundance fitness was -0.852 ± 0.4.

For NLFVALYDFVASGDNTLSITKGEKLRVLGYNHNGEWCEAQTKNLQGWVPSNYITPVN, the abundance fitness is -0.524 ± 0.12.

As to NLFVALYDFVASGDNTLSITKGEKLRVLGYNHNGEWCEAQTKNFQGWVPSNYITPVN, the abundance fitness was -0.219 ± 0.16.

Consider NLFVALYDFVASGDNTLSITKGEKLRVLGYNHNGEWCEAQTKNAQGWVPSNYITPVN, for which the abundance fitness was -0.117 ± 0.081.
